Data: ChEMBL document CHEMBL4177638, “Challenges in the development of an M4 PAM preclinical candidate: The discovery, SAR, and biological characterization of a series of azetidine-derived tertiary amides” (Bioorg Med Chem Lett, 2017)

Protein sequences, listed by entry. Tags and fused reporters are not part of them.
UniProt P08173, whole entry: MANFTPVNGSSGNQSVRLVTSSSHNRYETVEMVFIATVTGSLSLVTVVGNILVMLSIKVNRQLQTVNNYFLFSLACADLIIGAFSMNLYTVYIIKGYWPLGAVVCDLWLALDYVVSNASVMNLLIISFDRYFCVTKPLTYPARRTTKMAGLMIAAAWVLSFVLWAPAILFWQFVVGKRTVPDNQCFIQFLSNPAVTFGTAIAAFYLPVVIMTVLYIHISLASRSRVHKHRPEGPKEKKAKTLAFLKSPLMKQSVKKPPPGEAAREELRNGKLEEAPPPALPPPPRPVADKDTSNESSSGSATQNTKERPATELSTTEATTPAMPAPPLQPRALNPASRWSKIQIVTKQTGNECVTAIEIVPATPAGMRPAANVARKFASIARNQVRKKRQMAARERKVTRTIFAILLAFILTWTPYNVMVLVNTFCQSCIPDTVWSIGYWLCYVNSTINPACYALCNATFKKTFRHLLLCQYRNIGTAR

Target: Muscarinic acetylcholine receptor M4 (Homo sapiens, UniProt P08173)
Assay: Positive allosteric modulation of human M4 receptor expressed in CHO cells co-expressing Gqi5 assessed as increase in acetylcholine-induced calcium mobilization relative to acetylcholine
Format: functional, cell-based

%max: 74%
Structure (SMILES): Cc1nnc2sc(C(=O)NCc3ccc(S(=O)(=O)C(F)(F)F)cc3)c(N)c2c1C
